# Source: patent publication US20080299088A1 (US Dept. of Health and Human Services, published 2008)
# Molecular target: GLP-1 receptor on RIN 1046-38 clonal rat beta-cells (rat) (UniProt P32301)
# Assay: cell-based or functional assay
substance,measurement,value
Exendin-4 (from UniProt P26349) (peptide),NICD nuclear localization in RIN cells in the presence of glucose,< 7.5 fold
same,transcriptional activation of the UAS promoter (Notch deltaE-GVP / UAS-luciferase gamma-secretase assay in RIN cells),> 20 fold
